Bioassay records from PubChem.
Hits are enriched below; roughly 1.7% of the tested compounds scored in any of these assays.
GLP1R cytotox = cytotoxicity counter-screen for GLP-1 receptor inverse agonists | Potency, µM (titrated, usually from 38.3 µM), for inactives: top-dose activity change, negative = inhibition, hits mostly inhibitors | hit rate 0.13% among 410,000 | HEK293 cAMP-luciferase reporter cells, luminescence, 24 h;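 note: loss of luciferase light is scored as toxicity; potency is the fitted concentration of half-maximal effect; % is set by controls: 0 for no effect and ±100 for the full control effect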
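Quantitative HTS format, 1536 wells, 200 cells/uL seeded. Compounds: 23 nL, 24 h, 37 °C. Detection: luciferase reagent, luminescence at 12 min RT; decreased signal taken as cytotoxic.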
PTHR1 agonist = activates the human parathyroid hormone receptor PTHR1. Potency, µM (titrated, usually from 115 µM), inactives show at the top dose activation, actives largely listed as activators. HEK293 GP2 PTHR1 cells, GloSensor cAMP luminescence, 1 h. hit rate 0.075% among 410,000. Q03431; note: potency is the fitted concentration of half-maximal effect; nearly all actives have a fitted effect of over 55% in size
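HEK-293-derived GP2 cells expressing PTHR1 and a GloSensor cAMP reporter, 3,000/well, plated overnight, given luciferin plus IBMX (each 0.5 mM as added) for 1 h at 37 °C, then compound for 1 h at 37 °C. Luminescence was read after 15 min at room temperature.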
GLP1R ag = GLP-1 receptor (human) agonism | Potency, µM (doses to about 45.6 µM), for inactives: top-dose activation, actives largely listed as activators | HEK293 GLP-1R CRE-luciferase, luminescence, 4-6 h; cells express a hypersensitive GLP-1R form | hit rate 0.007% among 380,000 | P43220; note: potency is the fitted concentration of half-maximal effect; % of control where 0% means no effect
GLP-1R inv ag = GLP-1 receptor (human) inverse agonism. P43220. HEK293 GLP-1R CRE-luciferase, luminescence, 24 h; GLP-1R form is constitutively active. Potency, µM (top dose mostly 38.3 µM), without a hit: top-dose activity change, negative = inhibition, hits mostly inhibitors. hit rate 1.6% among 410,000; note: potency is the fitted concentration of half-maximal effect; % is set by controls: 0 for no effect and ±100 for the full control effect; nearly all actives have a fitted effect of over 55% in size
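HEK293 cells stably co-expressing constitutively active GLP-1R and a cAMP-responsive luciferase reporter were seeded in DMEM with 10% Nu serum, given compounds after 12 h, and incubated 24 h at 37 deg C. Luminescence was then read.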
miR-21 reporter = raises the signal of a miR-21 reporter | HeLa miR-21 FLuc reporter, luciferase, 48 h | Potency, µM (doses to about 38.3 µM), without a hit: at the top dose reporter change, positive = more light | 340,000 tested, under 10 active | AID 2288; active = well fitted rising curve with a large enough effect; inconclusive = small, poorly fitted or top-dose-only effect; inactive = no such curve, though single readings can be large or run the other way;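 note: % of control where 0% means no effect; miR-21 action dims this reporter so a rising signal means less miR-21 action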
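Luminescence from a firefly luciferase reporter carrying a miR-21 binding site downstream, stably expressed under a CMV promoter in HeLa cells that make miR-21 endogenously, reports miRNA modulation after 48 h compound exposure up to approximately 40uM final.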
Pin1 inh = inhibitors of human Pin1. Pin1 FP peptide displacement, HiFluor488, 10 min. Potency, µM (doses to about 115 µM), inactives show at the top dose activity, negative = inhibition, most hits filed as inhibitors. hit rate 0.009% among 390,000; active = well fitted inhibition curve with a large enough effect in the polarisation, with a control signal flat, not every such curve was filed as active; inconclusive = small, poorly fitted or top-dose-only effect, or effect the other way, or a change in a side signal; inactive = no such curve, though single readings can be large or run the other way; the % refers to the polarisation; note: potency is the fitted concentration of half-maximal effect; % is set by controls: 0 for no effect and ±100 for the full control effect
* marks the source's active call; other numbers are inactive results; [ ] = remark or other dose. Unless noted, calls come from the whole dose curve; as a rule, active = well fitted curve in the direction sought with a large enough effect; inconclusive = small, poorly fitted or top-dose-only effect, or another doubt; inactive = no such curve, though single readings can be large; an effect the other way counts as inactive or inconclusive.

How did CNCCC(Oc1ccc(C(F)(F)F)cc1)c1ccccc1 (stereo not drawn) do in these assays?
GLP1R cytotox: -11%; PTHR1 agonist: -11%; GLP1R ag: 30%; GLP-1R inv ag: inconclusive; miR-21 reporter: 1%; Pin1 inh: inconclusive

How did O=C1NC(=O)C(=Cc2cccc(OCCOc3ccccc3)c2)C(=O)N1 do in these assays?
GLP1R cytotox: -4%; PTHR1 agonist: -67%; GLP1R ag: -6%; GLP-1R inv ag: inconclusive; miR-21 reporter: -46%; Pin1 inh: 2%

How did Cc1ccc(OCCOc2cccc(C=C3C(=O)NC(=O)NC3=O)c2)c(C)c1 do in these assays?
GLP1R cytotox: -1%; PTHR1 agonist: -38%; GLP1R ag: -7%; GLP-1R inv ag: 6.3µM*; miR-21 reporter: -45%; Pin1 inh: 2%

What do the screens show for `CCCCOc1ccc(CN2CCN(CCO)CC2)cc1`?
GLP1R cytotox: -13%; PTHR1 agonist: -2%[57.5 µM]; GLP1R ag: -9%; GLP-1R inv ag: -5%; miR-21 reporter: -25%; Pin1 inh: 2%

Results for CCCCCCOc1ccc(CN2CCN(CCO)CC2)cc1 ?
GLP1R cytotox: 5%; PTHR1 agonist: 0%; GLP1R ag: -5%; GLP-1R inv ag: 2.5µM*; miR-21 reporter: -26%; Pin1 inh: -3%

Results for Cc1sc2ncnc(SCC(=O)Nc3ccc(S(=O)(=O)N4CCOCC4)cc3)c2c1C ?
GLP1R cytotox: -1%; PTHR1 agonist: -21%; GLP1R ag: 19%; GLP-1R inv ag: -22%; Pin1 inh: inconclusive

What do the screens show for `COc1ccc2[nH]c(C)c(CCNCc3cn(C)c4ccccc34)c2c1`?
GLP1R cytotox: inconclusive; PTHR1 agonist: inactive; GLP1R ag: -4%; GLP-1R inv ag: 2.8µM*; Pin1 inh: 8%

Results for CN(C)C(=O)O/N=C(\N)COc1ccc(C(C)(C)C)cc1 ?
GLP1R cytotox: 3.2µM*; PTHR1 agonist: -19%; GLP1R ag: -9%; GLP-1R inv ag: inconclusive; miR-21 reporter: inconclusive; Pin1 inh: 5%

Results for COc1cccc(NC(=O)C2CCN(c3nnc(C)c4c(C)n(-c5ccccc5)nc34)CC2)c1 ?
GLP1R cytotox: -11%; PTHR1 agonist: -29%; GLP-1R inv ag: 2%; miR-21 reporter: 14%; Pin1 inh: inconclusive

How did C[C@H]1[C@@H](OS(=O)(=O)O)C[C@@H]2C[C@H]([C@@H](O)c3cc(=O)[nH]c(=O)[nH]3)NC3=NC[C@H]1N32 do in these assays?
PTHR1 agonist: -16%; GLP1R ag: -10%; GLP-1R inv ag: 2.5µM*; Pin1 inh: -7%

How did Oc1ccc2c3c1O[C@H]1[C@@H](O)C=CC4[C@@H](C2)NCC[C@@]341 (stereo partly drawn) do in these assays?
GLP1R ag: 4%

How did Cc1ccccc1C(=O)Oc1cccc(Nc2ncnc3ccccc23)c1 do in these assays?
GLP1R cytotox: -25%; PTHR1 agonist: inactive; GLP1R ag: -16%; GLP-1R inv ag: 11µM*; Pin1 inh: 17%

How did CNCC(O)c1cccc(OC(=O)c2ccccc2C)c1 (stereo not drawn) do in these assays?
GLP1R cytotox: 16%; PTHR1 agonist: inactive; GLP1R ag: 1%; GLP-1R inv ag: -8%; miR-21 reporter: -9%; Pin1 inh: 5%

Results for CCOP(=O)(OCC)c1nc(-c2ccc(Br)cc2)oc1N1CCCCC1 ?
GLP1R cytotox: 1%; PTHR1 agonist: -16%; GLP1R ag: 13%; GLP-1R inv ag: 8.9µM*; miR-21 reporter: 5%; Pin1 inh: 1%

How did CCOP(=O)(c1ccccc1)c1nc(-c2ccc(F)cc2)oc1N1CCCCC1 (stereo not drawn) do in these assays?
GLP1R cytotox: -1%; PTHR1 agonist: inactive; GLP1R ag: 13%; GLP-1R inv ag: inconclusive; miR-21 reporter: 6%; Pin1 inh: -1%

An excerpt from above in order of length of the SMILES, high to low.
How did Cc1ccc(OCCOc2cccc(C=C3C(=O)NC(=O)NC3=O)c2)c(C)c1 do in these assays?
GLP1R cytotox: -1%; PTHR1 agonist: -38%; GLP1R ag: -7%; GLP-1R inv ag: 6.3µM*; miR-21 reporter: -45%; Pin1 inh: 2%

How did O=C1NC(=O)C(=Cc2cccc(OCCOc3ccccc3)c2)C(=O)N1 do in these assays?
GLP1R cytotox: -4%; PTHR1 agonist: -67%; GLP1R ag: -6%; GLP-1R inv ag: inconclusive; miR-21 reporter: -46%; Pin1 inh: 2%

How did CNCCC(Oc1ccc(C(F)(F)F)cc1)c1ccccc1 (stereo not drawn) do in these assays?
GLP1R cytotox: -11%; PTHR1 agonist: -11%; GLP1R ag: 30%; GLP-1R inv ag: inconclusive; miR-21 reporter: 1%; Pin1 inh: inconclusive
